Reference: ChEMBL document CHEMBL5137121, “Spiroisoxazoline Inhibitors of Acetylcholinesterase from Pseudoceratina verrucosa. Quantitative Chiroptical Analysis of Configurational Heterogeneity, and Total Synthesis of (±)-Methyl Purpuroceratate C” (J Nat Prod, 2022)

assay: Selectivity index, ratio of IC50 for horse BuChE to IC50 for electric eel AChE

First: CNCCCOc1c(Br)cc(CCNC(=O)/C(Cc2ccc(OC)c(Br)c2)=N/O)cc1Br
Second: COc1ccc(C/C(=N\O)C(=O)NCCc2cc(Br)c(OCCCN(C)C)c(Br)c2)cc1Br
The Ratio IC50 of the first is lower: 0.5 for the first, 2.2 for the second.

In the case of `COc1c(Br)cc(C/C(=N\O)C(=O)NCCc2nc(N)[nH]c2C(O)(Cc2cc(Br)c(OC)c(Br)c2)C(=O)NCCc2cnc(N)[nH]2)cc1Br` (stereo not drawn), the Ratio IC50 is reported as < 0.14.
